Test results as given in patent publication US8569313B2, “Meta-substituted phenyl sulfonyl amides of secondary amino acid amides, the production thereof, and use thereof as matriptase inhibitors” (The Medicines Company (Leipzig) GmbH, priority 2007, dated 2013).

The chains behind the UniProt entries cited, without tags or fusion partners. Where a name states a change or a piece, a line headed by the entry shows the natural chain unless it says otherwise.
UniProt Q9Y5Y6: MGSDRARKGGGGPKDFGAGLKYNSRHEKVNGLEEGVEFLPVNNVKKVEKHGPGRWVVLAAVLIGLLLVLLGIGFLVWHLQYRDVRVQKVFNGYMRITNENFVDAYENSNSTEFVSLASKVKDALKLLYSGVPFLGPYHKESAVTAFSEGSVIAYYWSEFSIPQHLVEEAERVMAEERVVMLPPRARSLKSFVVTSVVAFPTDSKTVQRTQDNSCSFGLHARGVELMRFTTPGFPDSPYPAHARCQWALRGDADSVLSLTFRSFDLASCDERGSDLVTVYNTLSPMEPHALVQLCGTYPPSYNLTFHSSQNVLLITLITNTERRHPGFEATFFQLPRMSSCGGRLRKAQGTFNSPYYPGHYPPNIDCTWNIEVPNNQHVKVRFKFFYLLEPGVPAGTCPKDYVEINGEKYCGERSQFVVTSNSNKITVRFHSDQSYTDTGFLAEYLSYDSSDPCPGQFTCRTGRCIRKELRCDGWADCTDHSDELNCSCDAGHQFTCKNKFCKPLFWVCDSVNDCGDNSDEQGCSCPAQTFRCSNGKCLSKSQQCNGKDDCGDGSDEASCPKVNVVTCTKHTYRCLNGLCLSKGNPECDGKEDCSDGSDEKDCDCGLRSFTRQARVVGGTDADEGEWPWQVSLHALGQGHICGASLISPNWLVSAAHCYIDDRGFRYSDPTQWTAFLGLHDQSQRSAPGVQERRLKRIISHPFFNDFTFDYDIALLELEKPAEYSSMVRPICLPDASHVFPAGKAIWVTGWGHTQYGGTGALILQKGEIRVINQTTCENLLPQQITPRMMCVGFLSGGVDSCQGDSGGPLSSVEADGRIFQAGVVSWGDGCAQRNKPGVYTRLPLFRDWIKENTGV

Molecular target: matriptase (Homo sapiens (Human), UniProt Q9Y5Y6)
Experiment: Determination of the matriptase inhibition (chromogenic substrate CH3SO2-D-Cha-Gly-Arg-pNA, Dixon Ki)
Type: biochemical
Conditions: 25° C., pH 8.0; means of at least two determinations
Description: Determination of the Matriptase Inhibition
To determine the inhibition effect, 200 μl Tris buffer (inhibitor contains 0.05 M, 0.154 M NaCl, 5% ethanol, pH 8.0), 25 μl substrate (CH3SO2-D-Cha-Gly-Arg-pNA; 2 and 1 mM) and 50 μl matriptase (0.5 μg/ml) were incubated at 25° C. After 3 min the reaction was halted through the addition of 25 μl acetic acid (50%) and the Absorption determined at 405 nm by means of a Microplate Reader (Multiscan Ascent from the company Thermo Electron Corporation). The Ki values were calculated according to Dixon (Biochem. J. 55, 170-171, 1953) through linear regression by means of a computer program. The Ki-values are the means of at least two determinations.
Ki value for the inhibition of matriptase in nM (n.d.=not determined)

Substance: CH3-PEG1000-CH2—CH2—CO-Dap-3-NH-phenyl sulfonyl-Phe(3-Am)-4-(2-amino ethyl)-piperidide [Inhibitor 49]
- Ki: 21.8 nM
